According to paper PMC3144219, “Identification of Inhibitors against Mycobacterium tuberculosis Thiamin Phosphate Synthase, an Important Target for the Development of Anti-TB Drugs” (PLoS ONE, 2011):

Tested on: M.smegmatis mc^2155
Experiment: MIC99 determination, broth macrodilution with CFU plating
Type: cell-based
Details: 24 hours, 99% inhibition of growth

Substance: 2-{5-[2,4,6-trinitrophenyl)amino]-1H-tetrazol-1-yl}ethanol
- MIC99 for M.smegmatis: 500 µg/mL
